{"source": "paper PMC3873281", "about": "“Discovery and Preclinical Characterization of Novel Small Molecule TRK and ROS1 Tyrosine Kinase Inhibitors for the Treatment of Cancer and Inflammation” (PLoS ONE, 2013)", "key": {"K-299 cells": {"tested_on": "K-299 cells", "assay": "ALCL cell growth, WST-1", "settings": "ALK (+), NPM-ALK, 3 days"}, "A549 cells": {"tested_on": "A549 cells", "assay": "A549 cell growth", "settings": "lung cancer model that does not express ROS1"}, "SUDHL cells": {"tested_on": "SUDHL cells", "assay": "ALCL cell growth, WST-1", "settings": "ALK (+), NPM-ALK, 3 days"}}}
{"smiles": "C[C@@H](Oc1cc(-c2cnn(C3CCNCC3)c2)cnc1N)c1c(Cl)ccc(F)c1Cl", "note": "[crizotinib]", "values": [{"measurement": "growth of K-299 cells", "setting": "K-299 cells", "value": "comparably inhibited"}, {"measurement": "growth of A549 cells", "setting": "A549 cells", "value": "not inhibited"}, {"measurement": "growth of SUDHL cells", "setting": "SUDHL cells", "value": "comparably inhibited"}]}
